# Source: PubChem BioAssay AID2216 (Broad Institute, 2009)
# The list shows a part of the results, in another mix than the full data. Records with an inconclusive call do not appear. Active and inactive are the calls of the source.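 The calls were made as follows: active = more than half of the replicate wells show a fall in the fluorescence ratio signal beyond about 16% (limit read from the data, passing the limit was not always enough); inconclusive = exactly half of the replicate wells pass the set limit; inactive = fewer than half of replicates pass the limit.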
# System: Ran GTPase (GTP-bound) - importin-beta complex
# Assay: inhibitors of RanGTP-importin-beta interaction, primary screen, biochemical, FRET, CFP-Ran, YFP-importin-beta, homogeneous (AID 2216);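 also: 0% = DMSO wells and 100% = Ran loaded with GDP instead of GTP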
# Settings: cell-free CFP-Ran/YFP-importin-beta FRET ratio; stronger effect = higher value; concentration not given here
row,Compound,inhibition
1,Cc1cc(-c2cccc3ccccc23)c(C)cn1.O=[N+]([O-])c1cc([N+](=O)[O-])c(O)c([N+](=O)[O-])c1,inactive: -1.15%
2,O=[As](O)(c1ccccc1)c1ccc(O)cc1,inactive: 3.03%
3,C[C@H]1OP(=O)(Oc2ccccc2)[C@H](O)[C@H](O)[C@H]1N=[N+]=[N-] (stereo partly drawn),inactive: -1.85%
4,CN(C)CCOC(=O)C(O)(c1ccccc1)C1CCCCC1 (stereo not drawn),inactive: 1.64%
5,COc1ccc(NP(C)(=O)Oc2ccccc2OC)cc1 (stereo not drawn),inactive: -2.22%
6,COc1ccc(OP(C)(=O)Nc2cccc(Br)c2)cc1 (stereo not drawn),inactive: 2.62%
7,CN(C)C1(CNC(=O)c2ccc(Cl)c(S(N)(=O)=O)c2)CCCCC1,inactive: -1.57%
8,O=P(Nc1ccccn1)(c1ccc(Br)cc1)c1ccc(Br)cc1,inactive: 1.62%
9,Cc1ccccc1NP(C)(=O)Nc1ccccc1C,inactive: -0.743%
10,CP(=O)(Nc1ccc2c(c1)OCCO2)Oc1ccccc1 (stereo not drawn),inactive: 0.109%
11,CCOP(C)(=S)SCC(=O)NC(C)(CC)C(=O)O (stereo not drawn),inactive: -3.42%
12,c1nnnn1CCn1cnnn1,inactive: 6.85%
13,CP(=O)(Nc1ccc(SC(F)(F)F)cc1)Oc1ccc(F)cc1 (stereo not drawn),inactive: 0.946%
14,O=P(Nc1nccs1)(c1ccccc1)c1ccccc1,inactive: 0.212%
15,CC(C)C(=O)NC(Sc1ccccc1)C(Cl)(Cl)Cl (stereo not drawn),inactive: 3.8%
16,CC1(CBr)Cn2c(nc3ccccc3c2=O)S1 (stereo not drawn),inactive: -1.45%
17,O=[As](O)(c1ccccc1Br)c1ccccc1Br,inactive: 4.69%
18,CN(C(=O)Cc1ccc(Cl)c(Cl)c1)[C@@H]1CCCC[C@H]1N1CCCC1,inactive: -0.526%
19,CC(C)/C=N\N=C(\N)N[N+](=O)[O-],inactive: 2.75%
20,COc1ccccc1CNC(=O)COC(=O)C(O)(c1ccccc1)c1ccccc1,inactive: -0.391%
21,O=[N+]([O-])c1cc([N+](=O)[O-])c(-c2cnn(-c3ccccc3)c2)c([N+](=O)[O-])c1,inactive: -1.82%
22,CC(C)(C)C(=O)NC(Sc1ncccn1)C(Cl)(Cl)Cl (stereo not drawn),inactive: 1.73%
23,Clc1n[nH]nc1-c1nn[nH][15n]1,inactive: -2.56%
24,CCOP(=O)(Nc1ccc(C)cn1)OCC,inactive: 2%
25,CN(CCCl)Cc1cc(Cl)c(NC2=NCCN2)c(Cl)c1,inactive: -0.618%

row,Compound,inhibition
1,O=[N+]([O-])c1cc([N+](=O)[O-])c(-n2nnc3ccccc32)c([N+](=O)[O-])c1,inactive: 4.41%
2,CCOP(=O)(NC(=NC(C)c1ccccc1)NC(C)c1ccccc1)OCC (stereo not drawn),inactive: -0.806%
3,CCC1=CC2Cc3nc4ccc(Cl)cc4c(N)c3C(C1)C2 (stereo not drawn),inactive: 3.47%
4,O=P1(Nc2ccccn2)COc2ccccc2OC1,inactive: -1.22%
5,O=[As](O)(c1cccs1)c1cccs1,inactive: 0.0855%
6,Cc1ccc(OCC(=O)OC2CN3CCC2CC3)cc1 (stereo not drawn),inactive: 1.02%
7,CCCOc1ccc(NP(C)(=O)Oc2ccc(Cl)cc2)cc1 (stereo not drawn),inactive: 1.08%
8,CP(=O)(Nc1ccc(SC(F)(F)F)cc1)Oc1ccccc1 (stereo not drawn),inactive: 7.14%
9,Nc1cccc([As](=O)(O)c2ccccc2)c1,inactive: -0.351%
10,CN1CCCCC1COC(=O)C1(O)c2ccccc2CCc2ccccc21 (stereo not drawn),inactive: -2.06%
11,COc1ccccc1OP(C)(=O)Nc1c(C)cccc1C (stereo not drawn),inactive: 1.41%
12,O=P1(Nc2ncccn2)COc2ccccc2OC1,inactive: -0.633%
13,O=C(/C=C/c1ccccc1)OC1CN2CCC1CC2 (stereo not drawn),inactive: 4.66%
14,CCOC(=O)C(CC)C1=NC(C)(C)Cc2ccccc21.O=[N+]([O-])c1cc([N+](=O)[O-])c(O)c([N+](=O)[O-])c1 (stereo not drawn),inactive: 0.0666%
15,CN(C)C1(CNC(=O)c2ccc(S(C)(=O)=O)cc2)CCCCC1,inactive: -0.957%
16,O=[N+]([O-])c1cc([N+](=O)[O-])c(Nc2nnnn2CCO)c([N+](=O)[O-])c1,inactive: -6.12%
17,COc1cc(C2NCCC3(OCCO3)C2(C)C)cc(OC)c1OC.O=[N+]([O-])c1cc([N+](=O)[O-])c(O)c([N+](=O)[O-])c1 (stereo not drawn),inactive: 5.21%
18,CC1CCC(C(C)C)C(OP(=O)(Nc2ccccn2)c2ccccc2)C1 (stereo not drawn),inactive: -1.39%
19,Cc1nn(-c2ccccc2)c2c1P(=O)(N1CCOCC1)N(C)C(c1ccccc1)=N2 (stereo not drawn),inactive: 1.91%
20,CC1=NCCc2c1[nH]c1ccccc21.O=[N+]([O-])c1cc([N+](=O)[O-])c(O)c([N+](=O)[O-])c1,inactive: -8.84%
21,CN(C(=O)Cc1ccc(Cl)c(Cl)c1)[C@H]1CC[C@@]2(CCCO2)C[C@@H]1N1CCCC1,inactive: 1.24%
22,O=[N+]([O-])c1ccc2c(c1)nnn2O,inactive: 3.56%
23,CN(C)C(=O)c1cc([N+](=O)[O-])cc2c1-c1c(cc([N+](=O)[O-])cc1[N+](=O)[O-])C2=O,inactive: 1.02%
24,CCOP1(=S)c2c(C)nn(CCC#N)c2N=C(c2ccc(F)cc2)N1C (stereo not drawn),inactive: 3.18%
25,CN(C(=O)Cc1ccccc1)[C@@H]1CC[C@]2(CCCO2)C[C@H]1N1CCCC1,inactive: -2.23%

row,Compound,inhibition
1,N#CCCN(C(=O)COC(=O)C(O)(c1ccccc1)c1ccccc1)c1ccc(F)cc1,inactive: 4.31%
2,NC(=O)Nc1ccc([As](=O)(O)O)cc1,inactive: 1.71%
3,O=C(O)COc1ccc([As](=O)(O)O)cc1[N+](=O)[O-],inactive: -1.36%
4,Nc1ccccc1[As](=O)(O)c1ccccc1,inactive: -3.39%
5,CS(=O)(=O)c1cc([N+](=O)[O-])c2no[n+]([O-])c2c1,inactive: -59.1%
6,O=P(Nc1nccs1)(Oc1ccccc1)Oc1ccccc1,inactive: 1.5%
7,O=P(Nc1nccs1)(c1ccccc1)c1nc2ccccc2s1 (stereo not drawn),inactive: -5.01%
8,O=C(O)c1cccc(Nc2c([N+](=O)[O-])cc([N+](=O)[O-])cc2[N+](=O)[O-])c1,inactive: -2.77%
9,CCOP1(=S)c2c(C)nn(CCC#N)c2N=C(c2ccccc2F)N1C (stereo not drawn),inactive: 2.6%
10,CCOP(=O)(Nc1cccc2ccccc12)OCC,inactive: 0.512%
11,Cc1ccc(C)c(NP(C)(=O)Oc2ccccc2)c1 (stereo not drawn),inactive: -2.72%
12,CCCOP(=S)(Nc1nc(N)cc(=O)[nH]1)OCCC,inactive: -3.23%
13,Nc1cccc2c([As](=O)(O)O)cccc12,inactive: 1.88%
14,Cc1ccc(NCCc2c([N+](=O)[O-])cc([N+](=O)[O-])cc2[N+](=O)[O-])cc1,inactive: -0.287%
15,Cc1cc(C)cc(OP(C)(=O)Nc2ccccn2)c1 (stereo not drawn),inactive: -0.46%
16,CP(=O)(Nc1cccc(Br)c1)Oc1ccccc1 (stereo not drawn),inactive: 0.885%
17,CCOC(=O)c1ccc(NP(C)(=O)Oc2cc(C)cc(C)c2)cc1 (stereo not drawn),inactive: -1.54%
18,Cc1cccc(OCC(=O)OC2CN3CCC2CC3)c1 (stereo not drawn),inactive: 1.2%
19,O=[As](O)(c1cccc(O)c1)c1cccc(O)c1,inactive: 3.52%
20,CS(=O)(=O)c1ccc(Cl)c(NC(=O)COC(=O)C(O)(c2ccccc2)c2ccccc2)c1,inactive: -3.84%
21,COc1ccccc1OP(C)(=O)Nc1cccc(Br)c1 (stereo not drawn),inactive: 0.821%
22,O=[As](O)(O)c1cccnc1,inactive: 1.16%
23,COc1cc(C(=O)NCC2(N3CCOCC3)CCCCC2)cc(Cl)c1OC(C)C,inactive: -1.77%
24,O=C(OC1CN2CCC1CC2)c1ccc(Cl)cc1 (stereo not drawn),inactive: 4.38%
25,COc1ccc(N/C(=N/P(=O)(N2CCOCC2)N2CCOCC2)N2CCOCC2)cc1,inactive: 0.915%

row,Compound,inhibition
1,COc1cc(I)ccc1[As](=O)(O)O,inactive: -1.46%
2,COc1ccc2nc(NP(=O)(c3ccccc3)c3ccccc3)sc2c1,inactive: -0.608%
3,CCN(CC)CCCOC(=O)C(O)(c1ccccc1)c1ccccc1,inactive: -0.728%
4,Cc1cc(=O)[nH]c(N[N+](=O)[O-])n1,inactive: 7.6%
5,O=C(OC1CN2CCC1CC2)C12CC3CC(CC(C3)C1)C2 (stereo not drawn),inactive: -0.521%
6,Cc1c2c(nc3ccccc13)SC(C(Cl)Cl)C2 (stereo not drawn),inactive: -1.54%
7,Cc1cc(C)cc(OP(C)(N)=O)c1 (stereo not drawn),inactive: 0.156%
8,COc1ccc(OP(C)(=O)Nc2cccc(F)c2)cc1 (stereo not drawn),inactive: -1.34%
9,O=[N+]([O-])c1cc([N+](=O)[O-])c(-c2ccn[nH]2)s1,inactive: 2.71%
10,CC(C)NC(=O)NP(=O)(Oc1ccccc1)Oc1ccccc1,inactive: 0.871%
11,CCN(CC)C(=S)SC(NC=O)C(Cl)(Cl)Cl (stereo not drawn),inactive: 0.68%
12,CC(C)c1ccc(OP(=O)(Nc2ccccn2)Oc2ccccc2F)cc1 (stereo not drawn),inactive: 1.88%
13,Cc1ccc(NP(C)(=O)Oc2ccccc2)c(C)c1 (stereo not drawn),inactive: 2.9%
14,COc1ccccc1OP(C)(=O)Nc1ccc(C)cc1 (stereo not drawn),inactive: 5.68%
15,ClCCSc1nnc(-c2cccnc2)o1,inactive: 1.89%
16,CCOC(=O)c1ccc(NP(C)(=O)Oc2ccccc2)cc1 (stereo not drawn),inactive: 2.43%
17,O=[N+]([O-])c1ccc2c(c1)C=Nc1ccccc1O2,inactive: -3.14%
18,Cc1ccc2nc3c(c(C)c2c1)CC(C(Cl)Cl)S3 (stereo not drawn),inactive: 0.957%
19,Cc1cccc(C)c1OP(C)(N)=O (stereo not drawn),inactive: -0.444%
20,Cc1ccc(OP(=O)(Nc2ccc([N+](=O)[O-])cn2)Oc2ccc(C)cc2)cc1,inactive: 1.25%
21,CC(C)(C)c1ccc(OP(C)(=O)Nc2ccc(SC(F)(F)F)cc2)cc1 (stereo not drawn),inactive: 6.23%
22,C[As](=O)(O)c1cccc(C(=O)O)c1,inactive: 2.33%
23,O=[As](O)(c1ccc(O)cc1)c1ccccc1O,inactive: 0.712%
